The molecules below were run against Mu-type opioid receptor (Homo sapiens, UniProt P35372) (assay: Human Mu-Opioid Peptide (hMOP) Receptor Binding Assay: The hMOP receptor binding assay was performed as homogeneous SPA-assay (scintillation proximity assay) using the assay buffer 50 mM TRIS-HCl (pH 7.4) supplemented with […] bovine serum albumin (Sigma-Aldrich Co. St. Louis. Mo.). The final assay volume (250 l/well) included 1 nM of [N-allyl-2.3-3H]naloxone as ligand (PerkinElmer Life Sc).

Chains of the proteins cited; added tags and fusions are not shown.
UniProt P35372, whole entry, looked up: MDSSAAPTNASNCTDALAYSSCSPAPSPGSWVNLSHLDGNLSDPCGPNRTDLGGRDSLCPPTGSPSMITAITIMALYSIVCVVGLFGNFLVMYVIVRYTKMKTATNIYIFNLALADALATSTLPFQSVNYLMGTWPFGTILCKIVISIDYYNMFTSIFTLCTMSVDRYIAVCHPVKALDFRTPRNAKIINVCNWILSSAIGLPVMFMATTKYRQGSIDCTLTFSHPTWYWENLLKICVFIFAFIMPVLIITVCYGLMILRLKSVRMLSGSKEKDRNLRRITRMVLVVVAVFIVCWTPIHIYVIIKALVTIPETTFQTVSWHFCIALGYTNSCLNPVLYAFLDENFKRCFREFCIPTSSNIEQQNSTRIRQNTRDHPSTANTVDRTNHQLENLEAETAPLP

Point of comparison: `COC(=O)c1cccc(N2C[C@]3(CC[C@](c4ccccc4)(N(C)C)CC3)NC2=O)c1`, Ki 2480 nM. Against it:
- COCCOCCOCCOCCNC(=O)c1ncc(N2C[C@]3(CC[C@](c4ccccc4)(N(C)C)CC3)N(CC3(O)CCC3)C2=O)cn1 — 32-fold lower, 78 nM
- CN(C)[C@]1(c2ccccc2)CC[C@]2(CC1)CN(c1ccc(S(C)(=O)=O)cc1C#N)C(=O)N2CC1CCC1 — 110-fold lower, 23 nM
- CN(C)[C@]1(c2ccccc2)CC[C@]2(CC1)CN(c1cnc(N3CCCCC3)nc1)C(=O)N2 — within 1.5-fold, 3610 nM
- CN(C)[C@]1(c2ccccc2)CC[C@]2(CC1)CN(c1ccc(S(C)(=O)=O)cc1F)C(=O)N2CC1CC1 — 22-fold lower, 115 nM
- COc1ccc(N2C[C@]3(CC[C@](c4ccccc4)(N(C)C)CC3)N(CC3CCC3)C2=O)c(OC)c1 — 57-fold lower, 43.5 nM
- CN(C)[C@]1(c2ccccc2)CC[C@]2(CC1)CN(c1ncc(C(N)=O)cn1)C(=O)N2CC1CCC1 — 55-fold lower, 45 nM
- CN[C@]1(c2ccccc2)CC[C@]2(CC1)CN(c1ccc(S(C)(=O)=O)cc1F)C(=O)N2CC1CC1 — 8.3-fold lower, 300 nM
- COc1ncc(N2C[C@]3(CC[C@](c4ccccc4)(N(C)C)CC3)N(CC3(O)CCC3)C2=O)cn1 — 76-fold lower, 32.5 nM
- CN(C)[C@]1(c2ccccc2)CC[C@]2(CC1)CN(c1ccc(C(N)=O)cc1)C(=O)N2 — within 1.5-fold, 2220 nM
- COC(=O)c1ccc(N2C[C@]3(CC[C@](c4ccccc4)(N(C)C)CC3)NC2=O)cc1 — 2.1-fold higher, 5120 nM
- Cc1cn2cc(N3C[C@]4(CC[C@](c5ccccc5)(N(C)C)CC4)N(CC4CCC4)C3=O)ncc2n1 — 100-fold lower, 24 nM
- CC(=O)N1CCN(c2ncc(N3C[C@]4(CC[C@](c5ccccc5)(N(C)C)CC4)NC3=O)cn2)CC1 — 2.4-fold higher, 5840 nM
- CN(C)[C@]1(c2ccccc2)CC[C@]2(CC1)CN(c1ccccc1S(C)(=O)=O)C(=O)N2 — within 1.5-fold, 2260 nM
- COc1ncc(N2C[C@]3(CC[C@](c4ccccc4)(N(C)C)CC3)N(CC3CCC3)C2=O)cn1 — 70-fold lower, 35.3 nM
- CN(CCO)c1ncc2cc(N3C[C@]4(CC[C@](c5ccccc5)(N(C)C)CC4)NC3=O)ccc2n1 — within 1.5-fold, 1720 nM
- CN(C)[C@]1(c2ccccc2)CC[C@]2(CC1)CN(c1cnc(N3CCOCC3)nc1C(F)(F)F)C(=O)N2 — 3.2-fold higher, 7860 nM
- CN(C)[C@]1(c2ccccc2)CC[C@]2(CC1)CN(c1cnc(N3CCN(CCO)CC3)nc1)C(=O)N2 — within 1.5-fold, 2000 nM
- Cc1cnc(N2C[C@]3(CC[C@](c4ccccc4)(N(C)C)CC3)NC2=O)cn1 — within 1.5-fold, 3130 nM
- CN(C)[C@]1(c2ccccc2)CC[C@]2(CC1)CN(c1ccnc(C#N)n1)C(=O)N2CC1CCC1 — 64-fold lower, 38.5 nM
- CN(C)[C@]1(c2ccccc2)CC[C@]2(CC1)CN(c1cnc(C(=O)N3CCNCC3)nc1)C(=O)N2 — within 1.5-fold, 2520 nM
- CN(C)C(=O)c1ccc(N2C[C@]3(CC[C@](c4ccccc4)(N(C)C)CC3)N(CC3CCC3)C2=O)cc1 — 240-fold lower, 10.4 nM
- CN[C@]1(c2cccc(F)c2)CC[C@]2(CC1)CN(c1cnc(C(F)(F)F)nc1)C(=O)N2CC1CC1 — 1.7-fold lower, 1440 nM
- COc1ncc(N2C[C@]3(CC[C@](c4ccccc4)(N(C)C)CC3)NC2=O)cn1 — 2.3-fold higher, 5690 nM
- COC(=O)c1cc(C)c(N2C[C@]3(CC[C@](c4ccccc4)(N(C)C)CC3)N(CC3CCC3)C2=O)cn1 — 45-fold lower, 55 nM
- CN(C)[C@]1(c2cccs2)CC[C@]2(CC1)CN(c1cnc(-c3cccc4c3CC(=O)N4)nc1)C(=O)N2 — 2.1-fold higher, 5260 nM
- COc1cnc(N2C[C@]3(CC[C@](c4ccccc4)(N(C)C)CC3)N(CC3CCC3)C2=O)cn1 — 9.5-fold lower, 260 nM
- CN(C)[C@]1(c2ccccc2)CC[C@]2(CC1)CN(c1ncc(F)cn1)C(=O)N2CC1CCC1 — 64-fold lower, 38.5 nM
- CN(C)[C@]1(c2ccccc2)CC[C@]2(CC1)CN(c1cnc3c(ccn3S(C)(=O)=O)c1)C(=O)N2 — 1.7-fold lower, 1480 nM
- CN(C)[C@]1(c2cccc(F)c2)CC[C@]2(CC1)CN(c1cnc(C(F)(F)F)nc1)C(=O)N2CC1CC1 — within 1.5-fold, 3630 nM
- CN(C)[C@]1(c2ccccc2)CC[C@]2(CC1)CN(c1ccc(C(F)(F)F)nc1)C(=O)N2CC1CCC1 — 23-fold lower, 107 nM
- CN(C)[C@]1(c2ccccc2)CC[C@]2(CC1)CN(c1cnc(C(F)(F)F)nc1)C(=O)N2CC1(O)CCC1 — 60-fold lower, 41 nM
- C/C=C(\C)[C@]1(N(C)C)CC[C@@]2(CC1)CN(c1cnc(NCC(N)=O)nc1)C(=O)N2 — within 1.5-fold, 3510 nM
- CC(C)CN1C(=O)N(c2cnc(C#N)nc2)C[C@]12CC[C@](c1ccccc1)(N(C)C)CC2 — 17-fold lower, 145 nM
- CN(C)[C@]1(c2ccccc2)CC[C@]2(CC1)CN(c1ccc(C(N)=O)cc1)C(=O)N2CC1CCC1 — 170-fold lower, 14.5 nM
- CN(C)[C@]1(c2ccccc2)CC[C@]2(CC1)CN(c1cnc(C#N)nc1)C(=O)N2CC1(O)CCC1 — 64-fold lower, 39 nM
- COCCCN1C(=O)N(c2cnc(C#N)nc2OC)C[C@]12CC[C@](c1ccccc1)(N(C)C)CC2 — 7.4-fold lower, 335 nM
- CN(C)C(=O)CN1C(=O)N(c2cnc(C#N)nc2)C[C@]12CC[C@](c1ccccc1)(N(C)C)CC2 — 3.2-fold lower, 775 nM
- CN(CCO)c1ncc(N2C[C@]3(CC[C@](c4ccccc4)(N(C)C)CC3)NC2=O)cc1C(F)(F)F — within 1.5-fold, 1800 nM
- CN(C)[C@]1(c2ccccc2)CC[C@]2(CC1)CN(c1ccc(C#N)nc1)C(=O)N2CC1(O)CCC1 — 51-fold lower, 49 nM
- CN(C)[C@]1(c2ccccc2)CC[C@]2(CC1)CN(c1nc(-c3ccccc3)cs1)C(=O)N2 — 1.8-fold lower, 1410 nM
- CN[C@]1(c2cccc(F)c2)CC[C@]2(CC1)CN(c1cnc(C(F)(F)F)nc1)C(=O)N2CC1CCC1 — 5.5-fold lower, 455 nM
- CN(C)[C@]1(c2ccccc2)CC[C@]2(CC1)CN(c1cc(C#N)ncn1)C(=O)N2CC1CCC1 — 15-fold lower, 170 nM
- CC(=O)n1ccc2c(N3C[C@]4(CC[C@](c5ccccc5)(N(C)C)CC4)NC3=O)cccc21 — 1.9-fold higher, 4800 nM
- CN(C)[C@]1(c2ccccc2)CC[C@]2(CC1)CN(c1ccc(C#N)nc1)C(=O)N2CC1(C#N)CCC1 — 65-fold lower, 38 nM
- COC1(CCN2C(=O)N(c3cnc(C)nc3)C[C@]23CC[C@](c2ccccc2)(N(C)C)CC3)CCC1 — 120-fold lower, 20 nM
- CN(C)[C@]1(c2ccccc2)CC[C@]2(CC1)CN(c1c(F)cc(C(N)=O)cc1F)C(=O)N2 — within 1.5-fold, 2100 nM
- CN(C)[C@]1(c2ccccc2)CC[C@]2(CC1)CN(c1ccccc1C#N)C(=O)N2 — within 1.5-fold, 1880 nM
- COc1ccc(N2C[C@]3(CC[C@](c4ccccc4)(N(C)C)CC3)N(CC3CCC3)C2=O)c(C#N)c1 — 53-fold lower, 47 nM
- CN1CCN(c2ccc(N3C[C@]4(CC[C@](c5ccccc5)(N(C)C)CC4)NC3=O)cn2)CC1 — 3.6-fold lower, 695 nM
- CN(C)[C@]1(c2ccccc2)CC[C@]2(CC1)CN(c1ccc(S(C)(=O)=O)cc1)C(=O)N2CC1CCC1 — 7.5-fold lower, 330 nM
- CN[C@]1(c2ccccc2)CC[C@]2(CC1)CN(c1cnc(N3CCOCC3)c(C(F)(F)F)c1)C(=O)N2 — 2.8-fold higher, 6910 nM
- CN(C)[C@]1(c2ccccc2)CC[C@]2(CC1)CN(c1ccccc1C(N)=O)C(=O)N2CC1CCC1 — 60-fold lower, 41 nM
- CN(C)[C@]1(c2ccccc2)CC[C@]2(CC1)CN(c1ccc(-c3cccc4c3CC(=O)N4)nc1)C(=O)N2 — 2-fold lower, 1240 nM
- Cc1cc(N2C[C@]3(CC[C@](c4ccccc4)(N(C)C)CC3)NC2=O)cnc1N1CCOCC1 — 2.3-fold higher, 5640 nM
- CC(=O)N1CCN(c2cc(C)c(N3C[C@]4(CC[C@](c5ccccc5)(N(C)C)CC4)NC3=O)cn2)CC1 — within 1.5-fold, 2980 nM
- Cc1cc(C(F)(F)F)ncc1N1C[C@]2(CC[C@](c3ccccc3)(N(C)C)CC2)N(CC(=O)N2CCCC2)C1=O — within 1.5-fold, 2870 nM
- CN(C)[C@]1(c2ccccc2)CC[C@]2(CC1)CN(c1cccc3cnccc13)C(=O)N2 — within 1.5-fold, 2320 nM
- Cc1ccccc1N1C[C@]2(CC[C@](c3ccccc3)(N(C)C)CC2)NC1=O — within 1.5-fold, 2210 nM
- CN(C)[C@]1(c2cccc(F)c2)CC[C@]2(CC1)CN(c1cnc(C(=O)NCC3CCC3)nc1)C(=O)N2CC1CCC1 — 18-fold lower, 136 nM
- CN[C@]1(c2ccccc2)CC[C@]2(CC1)CN(c1cnc(C#N)nc1OC)C(=O)N2CC1(O)CCC1 — 15-fold lower, 170 nM

— ChEMBL document CHEMBL5728057, “3-((hetero-)aryl)-8-amino-2-oxo-1,3-diaza-spiro-[4.5]-decane derivatives” (2020)
